# Antibody variant affinities, Ab-91 heavy chain, assay 2

From the AlphaSeq antibody data of Engelhart et al. 2022 (doi:10.1038/s41597-022-01779-4), copy in the FLAb collection.

All variants were tested on one target, the spike HR2 peptide PDVDLGDISGINAS (SARS-CoV-2).

Each scFv is VL, the linker GGGGSGGGGSGGGGS, VH, as in the parent Ab-91, and differs from it in the CDRs of the heavy chain only.
VL: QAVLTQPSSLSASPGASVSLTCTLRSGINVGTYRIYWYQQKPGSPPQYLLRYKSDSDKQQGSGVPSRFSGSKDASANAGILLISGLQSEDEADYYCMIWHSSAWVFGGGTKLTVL
VH: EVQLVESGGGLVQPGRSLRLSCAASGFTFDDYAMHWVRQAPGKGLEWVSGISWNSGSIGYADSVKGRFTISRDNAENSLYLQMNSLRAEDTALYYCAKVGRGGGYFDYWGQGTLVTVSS

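The parent was found by panning a naive human phage display library on the peptide. AAYL51 was designed without a model: most single CDR substitutions and a random sample of double and triple ones. AlphaSeq pools MATa yeast showing the antibodies with MATalpha yeast showing the peptide. After mating in shaken culture at 30 °C for 16 h, diploids were selected and their barcode pairs sequenced. A regression on co-assayed BCL2-family reference pairs converts the normalised counts of each replicate to an apparent Kd. Mating was done three times.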

Variants are written as CDR1, CDR2 and CDR3 of the heavy chain (limits as in the source). Parent: GFTFDDYAMH, GISWNSGSIGYADSVK, VGRGGGYFDY. Scale: log10 of Kd in nM, estimated from mating counts; low values are strong binders. The mean shown is taken over the replicates in which the pair was detected. Where no diploid with the target was found in that replicate, the entry reads "ND": below detection, most likely a poor binder, though not proof of it.

For GFTFDDYAMS, GISWHSGSIGYADSVK, VGRSGGYFDY, the assay gave 4.36, ND, 5.44 (mean 4.90; controls 3 of 9).
For GFTFDDYAMH, GISWYSGGIGWADSVK, VGRGGGYFDY, the assay gave ND, ND, ND (controls 0 of 9).
For GFTFDDYAMH, GISWFSGSIGYAQSVK, RGRGGGYFDY, the assay gave 4.79, 3.94, ND (mean 4.36; controls 2 of 9).
For GFTFDDYAMH, GISWNSWSGGYADSVK, VGRGGGYFDP, the assay gave ND, ND, ND (controls 1 of 9).
For GFTFDDYAMH, GISWNSGSIGYADQVK, VGRVGGYQDY, the assay gave ND, ND, ND (controls 1 of 9).
For GFTFDDYAMH, GIEWVSGSIGYADSVK, VGRGGGYFDY, the assay gave 4.04, ND, ND (controls 4 of 9).
For GFTFDDYAMP, GISWNSGSKGYHDSVK, VGRGGGYFDY, the assay gave 4.20, 5.20, ND (mean 4.70; controls 4 of 9).
For NFTFDDYAMH, GISWNSGSIGYADSVK, VGRGGWYFDY, the assay gave ND, ND, ND (controls 1 of 9).
For GFTFRHYAMH, DISWNSGSIGYADSVK, VGRGGGYFDY, the assay gave 5.26, ND, ND (controls 0 of 9).
For GFTFDDYAAH, GISWNSGSIGYADSVK, VGIGGGGFDY, the assay gave ND, ND, ND (controls 0 of 9).
For GFTFDDYAMH, GIHWNSGSIVYADSVK, VGRGGGYGDY, the assay gave 4.53, 5.37, ND (mean 4.95; controls 4 of 9).
For GFTFDDYAKH, GISWNDGSIGYADSVK, VGRGGGMFDY, the assay gave ND, 5.24, ND (controls 4 of 9).
For GFTFDDYASH, GISWNSPSEGYADSVK, VGRGGGYFDY, the assay gave 3.53, ND, ND (controls 2 of 9).
For GFTFDDYASH, GISYNSGHIGYADSVK, VGRGGGYFDY, the assay gave ND, 3.04, ND (controls 1 of 9).
For GFTFDDRAMH, GISWNSGSIGYADRVK, VGRKGGYFDY, the assay gave ND, ND, ND (controls 1 of 9).
For GHTFDDYAMH, GISWNSGQIGYADSVK, VGRGGGYFDY, the assay gave 3.86, ND, ND (controls 1 of 9).
For DFTFDDYAHH, GISWNSGSIGYADSPK, VGRGGGYFDY, the assay gave ND, 4.52, ND (controls 1 of 9).
For GFMFDDYAMH, GISWNSPSIGYADSVK, VGRGGGYFDY, the assay gave ND, ND, ND (controls 0 of 9).
For GFTDDDYAMH, GISWNFWSIGYADSVK, VGRGGGYFDY, the assay gave 1.97, ND, ND (controls 0 of 9).
For GFTFDDYAMH, GISWNVGSTGYEDSVK, VGRGGGYFDY, the assay gave 4.22, ND, ND (controls 2 of 9).
For GFTFDSYAMH, GISWNSCSIGYADSKK, VGRGGGYFDY, the assay gave ND, ND, ND (controls 0 of 9).
For GFTFDDYAMH, GISWNSGSEGYADSVI, VGRGGGYFDY, the assay gave 0.79, 0.82, 0.14 (mean 0.58; controls 8 of 9).
For GKTEDDYAMH, MISWNSGSIGYADSVK, VGRGGGYFDY, the assay gave 4.21, 5.85, ND (mean 5.03; controls 4 of 9).
For GFTPDDYAYH, GISWNSGSIGYADSVP, VGRGGGYFDY, the assay gave 5.15, 5.53, 6.11 (mean 5.59; controls 4 of 9).
For GFTFDDYAMH, GIWWNSGSIPFADSVK, VGRGGGYFDY, the assay gave ND, ND, ND (controls 0 of 9).
For GFTFDDYTMH, GISWNSGSIKYEDSVK, VGRGGGYFDY, the assay gave 5.63, ND, ND (controls 0 of 9).
For GFTFDDYAMH, GISWNSGSIGYADSVK, VGRGGGYFDM, the assay gave 2.64, 3.67, 2.08 (mean 2.80; controls 0 of 9).
For GFTFDDYAMH, FISWNSGSIGYADSRK, VGRGGGYFDE, the assay gave 5.92, 4.52, ND (mean 5.22; controls 3 of 9).
For GFTFDDYAMH, GISWNPGSIGYAKSVK, VGRGGGYFWY, the assay gave ND, ND, ND (controls 0 of 9).
For GFTFDPYAMH, GISWNSGSIGYADSVK, VWRGGGYYDY, the assay gave ND, ND, ND (controls 0 of 9).
For GFTFDDYAMH, TISWNSGSICYADSVK, DGRGGGYFDY, the assay gave ND, ND, ND (controls 1 of 9).
For GFTFRDYAMH, GIDWNSGSIGYADSVK, VWRGGGYFDY, the assay gave 3.05, 4.00, ND (mean 3.53; controls 0 of 9).
For GFTFDDYSMH, GISVNSGSIGYADSVG, VGRGGGYFDY, the assay gave 3.38, ND, ND (controls 1 of 9).
For GFTKLCYAMH, GISWNSGSIGYADSVK, VGRGGGYFDY, the assay gave 4.79, ND, ND (controls 0 of 9).
For GFTFDDKAMC, GISWNSGSIGYADSVK, VGRGGGYFDS, the assay gave ND, 5.02, ND (controls 6 of 9).
For GFTFDDYAMH, GISWNSGSIGPNDSVK, VGRGKGYFDY, the assay gave ND, ND, ND (controls 1 of 9).
For GFTFDDYAML, GISWNSGSIGYACSVK, VGRGGGYFDY, the assay gave ND, ND, ND (controls 1 of 9).

The first 3 variants above that were never detected:

CDR-H1	CDR-H2	CDR-H3	log10 Kd (nM) by replicate	mean log10 Kd (nM)	signal with controls
GFTFDDYAMH	GISWYSGGIGWADSVK	VGRGGGYFDY	ND, ND, ND	ND	0/9
GFTFDDYAMH	GISWNSWSGGYADSVK	VGRGGGYFDP	ND, ND, ND	ND	1/9
GFTFDDYAMH	GISWNSGSIGYADQVK	VGRVGGYQDY	ND, ND, ND	ND	1/9

Parent in this assay: reference entry 1.86, copy in this library 0.88. Three control strains display no target. For library AAYL51, 21% of the pairings with them gave a signal, with a median of 4.54 and one signal in twenty below 3.26, so weak values seen in few replicates may be background. The control count says in how many pairings with the empty strains this scFv gave a signal.